Earlier results as cited in US9211291B2, “Treatment regimen utilizing neratinib for breast cancer” (WYETH LLC, priority 2009, dated 2015).

Tested on: HER2-positive breast cancer
Settings: cited from earlier work

Substance: trastuzumab: humanized monoclonal antibody that selectively binds to the human erbB-2 receptor
- disease-free-survival rate (at four years, Perez et al. 2007 and Slamon et al. 2006): 85.9% and 82%
- disease-free-survival rate (at three years, Smith et al. Lancet 2007): 80.6%

“And” between values parts separate entries of the source, which are not always exact repeats. Equal values may be shown once. Read-outs that look alike come from different tables or passages of the source.
